Experimental data taken from PubChem BioAssay AID720532 (National Center for Advancing Translational Sciences (NCATS), 2013).
This is a selection; strong and weak results do not stand in their true shares. Some results for these compounds are left out of this collection, so the calls shown say nothing about other tests. Results filed as inconclusive are left out. Active and inactive are the calls of the source. Calls come from the whole dose curve; tested in HEK293 cells.

assay: qHTS for Inhibitors of binding or entry into cells for Marburg Virus; details: Marburg virus pseudotype entry/binding inhibition, cell-based; at 49.2 µM (top of the series)
% is set by controls: 0 for no effect and ±100 for the full control effect.

With `CN1CCCC(OC(=O)C(O)(c2ccccc2)c2ccccc2)C1` (stereo unspecified) as the compound, how does the activity change, negative = inhibition read?
The activity change, negative = inhibition was inactive: -12.7%.
